From patent US20210122824A1

Molecular target: human CTLA4 expressed on HEK293F cells (human) (UniProt P16410)
Experiment: flow cytometry, HEK293F cells transiently expressing the target, 100 nM antibody, PE anti-human Fc; Mean (PE-A against FITC-A, GFP surrogate)

- Mean: 7310
Substance: reference antibody YW243.55.S70 (from U.S. Pat. No. 8,217,149 B2)
